Source: PubChem BioAssay AID720707 (National Center for Advancing Translational Sciences (NCATS), 2013)
This is a selection; strong and weak results do not stand in their true shares. Active and inactive are the calls of the source. Calls come from the whole dose curve; as a rule, active = well fitted activation curve with a large enough effect; inconclusive = small, poorly fitted or top-dose-only effect; inactive = no such curve, though single readings can be large or run the other way.

Sequences of proteins named here, by UniProt entry; tags and fusion partners are left off. A change or cut given only in a name is not applied to a line headed by its entry.
UniProt O95398: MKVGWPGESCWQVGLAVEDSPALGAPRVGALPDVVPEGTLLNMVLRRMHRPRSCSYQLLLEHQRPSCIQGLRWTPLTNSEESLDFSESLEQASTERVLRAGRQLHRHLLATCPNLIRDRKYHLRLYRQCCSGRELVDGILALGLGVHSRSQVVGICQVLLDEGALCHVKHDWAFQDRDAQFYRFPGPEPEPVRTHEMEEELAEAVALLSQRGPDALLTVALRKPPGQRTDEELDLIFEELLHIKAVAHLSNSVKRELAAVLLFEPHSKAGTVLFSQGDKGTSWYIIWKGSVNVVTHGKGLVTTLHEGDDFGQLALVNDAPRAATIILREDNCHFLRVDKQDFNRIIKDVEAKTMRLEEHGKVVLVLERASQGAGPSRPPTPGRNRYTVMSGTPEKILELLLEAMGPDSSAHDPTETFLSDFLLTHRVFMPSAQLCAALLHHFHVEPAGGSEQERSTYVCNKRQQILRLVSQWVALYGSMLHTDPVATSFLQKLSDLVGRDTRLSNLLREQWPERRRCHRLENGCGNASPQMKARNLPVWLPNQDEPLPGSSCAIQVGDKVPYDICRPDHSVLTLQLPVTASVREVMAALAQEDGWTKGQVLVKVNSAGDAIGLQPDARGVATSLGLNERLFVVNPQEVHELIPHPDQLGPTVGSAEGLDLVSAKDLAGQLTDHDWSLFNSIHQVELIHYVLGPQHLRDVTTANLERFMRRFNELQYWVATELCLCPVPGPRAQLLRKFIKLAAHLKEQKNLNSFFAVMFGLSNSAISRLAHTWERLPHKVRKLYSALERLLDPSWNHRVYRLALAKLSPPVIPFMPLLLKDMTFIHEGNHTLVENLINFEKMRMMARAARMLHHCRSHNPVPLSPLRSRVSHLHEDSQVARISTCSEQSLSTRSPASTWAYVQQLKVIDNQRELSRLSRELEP

Biological target: Rap guanine nucleotide exchange factor 3 (Homo sapiens) (UniProt O95398)
Experiment: qHTS for Agonist of cAMP-regulated guanine nucleotide exchange factor 3 (EPAC1): primary screen; note: nearly all actives have a fitted effect of over 60% in size
Details: biochemical assay, 100% = response to 6.5 mM cAMP; at 154 µM (top of the series)
How it was run: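 Nucleotide exchange assay: 100 nM EPAC1 with 250 nM Rap1B loaded with BODIPY-GDP and 50 uM GDP, room temperature. Fluorescence (480/540 nm) read every 5 min for 30 min; signal change normalized to 6.5 mM cAMP as full agonist.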

SMILES | activation
O=P(Nc1nccs1)(c1ccccc1)c1nc2ccccc2s1 (stereo unspecified) | inactive: -3.35%
O=P(Nc1nccs1)(Oc1ccccc1)Oc1ccccc1 | inactive: 4.16%
CN(C)C(=O)c1cc([N+](=O)[O-])cc2c1-c1c(cc([N+](=O)[O-])cc1[N+](=O)[O-])C2=O | inactive: 6.2%
O=[N+]([O-])c1ccc2c(c1)nnn2O | inactive: 10.7%
CN(C(=O)Cc1ccc(Cl)c(Cl)c1)[C@H]1CC[C@@]2(CCCO2)C[C@@H]1N1CCCC1 | inactive: -17.1%
N#CCCN(C(=O)COC(=O)C(O)(c1ccccc1)c1ccccc1)c1ccc(F)cc1 | inactive: 1.98%
CN(C(=O)Cc1ccccc1)[C@@H]1CC[C@]2(CCCO2)C[C@H]1N1CCCC1 | inactive: -1.22%
CCOP1(=S)c2c(C)nn(CCC#N)c2N=C(c2ccc(F)cc2)N1C (stereo unspecified) | inactive: 7.5%
NC(=O)Nc1ccc([As](=O)(O)O)cc1 | inactive: -18%
O=C(/C=C/c1ccccc1)OC1CN2CCC1CC2 (stereo unspecified) | inactive: 11.9%
CCCC1OP(=O)(Nc2ccccc2)OCC1CC (stereo unspecified) | inactive: 6.78%
CN(C)C1(CNC(=O)c2ccc(S(C)(=O)=O)cc2)CCCCC1 | inactive: 7.79%
Cc1nn(-c2ccccc2)c2c1P(=O)(N1CCOCC1)N(C)C(c1ccccc1)=N2 (stereo unspecified) | inactive: 5.96%
Cc1ccc(C(=O)OC2CN3CCC2CC3)cc1 (stereo unspecified) | inactive: -2.3%
CC1CCC(C(C)C)C(OP(=O)(Nc2ccccn2)c2ccccc2)C1 (stereo unspecified) | inactive: -8.52%
NS(=O)(=O)c1cccc(NC(=O)COC(=O)C(O)(c2ccccc2)c2ccccc2)c1 | inactive: 2.76%
O=P1(Nc2ccc(Br)cn2)COc2ccccc2OC1 | inactive: 6.94%
Cc1ccc(OCC(=O)OC2CN3CCC2CC3)cc1 (stereo unspecified) | inactive: 0.326%
O=[As](O)(c1cccs1)c1cccs1 | inactive: -4.57%
Nc1cccc([As](=O)(O)c2ccccc2)c1 | inactive: -6.2%
O=P1(Nc2ncccn2)COc2ccccc2OC1 | inactive: 3.74%
Cc1ccc(S(=O)(=O)N(CCCN)CCCc2c(C)nc(N)[nH]c2=O)cc1 | inactive: -16.2%
Clc1n[nH]nc1-c1nn[nH][15n]1 | inactive: 0.298%
O=P1(N(CCCl)CCCl)NCCC(C(F)(F)F)O1 (stereo unspecified) | inactive: 7.45%
CC(C)(C)C(=O)NC(Sc1ncccn1)C(Cl)(Cl)Cl (stereo unspecified) | inactive: -4.56%
CN(CCCl)Cc1cc(Cl)c(NC2=NCCN2)c(Cl)c1 | inactive: -11.8%

SMILES | activation
CCOP(=O)(Nc1ccc(C)cn1)OCC | inactive: -13.3%
CCC1=CC2Cc3nc4ccc(Cl)cc4c(N)c3C(C1)C2 (stereo unspecified) | inactive: -5.33%
O=P1(Nc2ccccn2)COc2ccccc2OC1 | inactive: 12.6%
CCOP(=O)(NC(=NC(C)c1ccccc1)NC(C)c1ccccc1)OCC (stereo unspecified) | inactive: -0.247%
CC1(CBr)Cn2c(nc3ccccc3c2=O)S1 (stereo unspecified) | inactive: -0.483%
CN(C(=O)Cc1ccc(Cl)c(Cl)c1)[C@@H]1CCCC[C@H]1N1CCCC1 | inactive: -16%
CC(C)/C=N\N=C(\N)N[N+](=O)[O-] | inactive: -18.7%
COc1ccccc1CNC(=O)COC(=O)C(O)(c1ccccc1)c1ccccc1 | inactive: 3.74%
O=C(COc1ccccc1)OC1CN2CCC1CC2 (stereo unspecified) | inactive: -3.63%
O=C(Nc1ccncc1[N+](=O)[O-])c1ccc([N+](=O)[O-])cc1[N+](=O)[O-] | inactive: 13%
O=C(O)C(=O)c1ccc(N(CCCl)CCCl)cc1 | inactive: -2.38%
COP1(=S)c2c(C)nn(CCC#N)c2N=C(c2ccc(F)cc2)N1C (stereo unspecified) | inactive: 10.8%
COC(=O)C1(C)COP(=O)(N2CCCC2)OC1 (stereo unspecified) | inactive: 1.13%
CCC(C)N(CC(C)C)C(=S)SC(NC(C)=O)C(Cl)(Cl)Cl (stereo unspecified) | inactive: -9.15%
CCOC(=O)c1ccc(NC(=O)C(C)(CCl)SC)cc1 (stereo unspecified) | inactive: 5.59%
O=C(OC1CN2CCC1CC2)c1cccc([N+](=O)[O-])c1 (stereo unspecified) | inactive: 9.74%
CSc1ccc(Nc2c([N+](=O)[O-])cc([N+](=O)[O-])cc2[N+](=O)[O-])cc1 | inactive: 18.6%
CCCCOc1ccc(C(=O)NCC2(N3CCCCC3)CCCCC2)cc1OC | inactive: -4.06%
Cc1cc(SC(NC(=O)c2ccccc2)C(Cl)(Cl)Cl)nc(C(C)C)n1 (stereo unspecified) | inactive: -3.05%
COP(=O)(OC)N1CC1c1ccccc1 (stereo unspecified) | inactive: 2.28%
CC1CCNP(=O)(N(CCCl)CCCl)O1 (stereo unspecified) | inactive: 9.84%
O=C(O)C(O)c1ccc(N(CCCl)CCCl)cc1 (stereo unspecified) | inactive: 7.3%
CCOC(=O)Nc1ccc([As](=O)(O)O)c(O)c1 | inactive: -4.84%
O=[N+]([O-])c1ccc(Nc2ccc(Oc3ccc([N+](=O)[O-])cc3[N+](=O)[O-])cc2)c([N+](=O)[O-])c1 | inactive: 5.29%
Cc1cc(SC(NC=O)C(Cl)(Cl)Cl)ncn1 (stereo unspecified) | inactive: 6.39%
O=P(Nc1ccccn1)(c1cccc2ccccc12)c1cccc2ccccc12 | inactive: 12.7%

SMILES | activation
CCOC(=O)Nc1cccc([As](=O)(O)O)c1 | inactive: 13.3%
Cc1ccc2nc3c(c(C)c2c1)CC(C(Cl)Cl)S3 (stereo unspecified) | inactive: -2.28%
Cc1ccc(OP(=O)(Nc2ccc([N+](=O)[O-])cn2)Oc2ccc(C)cc2)cc1 | inactive: 2.26%
[N-]=[N+]=NC1CCCCC1NC(=O)c1cc([N+](=O)[O-])cc([N+](=O)[O-])c1 (stereo unspecified) | inactive: 2.78%
C[As](=O)(O)c1cccc(C(=O)O)c1 | inactive: 9.63%
O=[As](O)(c1ccc(O)cc1)c1ccccc1O | inactive: -10.3%
COc1cc(C(=O)NCC2(N3CCOCC3)CCCCC2)ccc1OCC(C)C | inactive: -4.16%
O=[N+]([O-])c1ccc(-c2cc([N+](=O)[O-])c(O)c([N+](=O)[O-])c2)cc1 | inactive: -1.39%
CCN(CC)C(=S)SC(NC=O)C(Cl)(Cl)Cl (stereo unspecified) | inactive: -5.95%
O=C(OC1CN2CCC1CC2)c1cccc2[nH]cnc12 (stereo unspecified) | inactive: 5.75%
CC(C)NC(=O)NP(=O)(Oc1ccccc1)Oc1ccccc1 | inactive: 3.3%
O=[N+]([O-])c1cc([N+](=O)[O-])c(-c2ccn[nH]2)s1 | inactive: -1.12%
CC(C)c1ccc(OP(=O)(Nc2ccccn2)Oc2ccccc2F)cc1 (stereo unspecified) | inactive: 8.57%
COC(=O)C1(C)COP(=O)(N2CCCCCC2)OC1 (stereo unspecified) | inactive: -5.48%
ClCCSc1nnc(-c2cccnc2)o1 | inactive: -0.828%
COc1ccc2nc(NP(=O)(c3ccccc3)c3ccccc3)sc2c1 | inactive: 6.81%
COc1cc(I)ccc1[As](=O)(O)O | inactive: 1.32%
O=P1(N(CCCl)CCCl)OCCCN1CCCl (stereo unspecified) | inactive: 7.31%
O=P1(N(CCCl)CCCl)Nc2ccccc2N1 | inactive: 7.51%
O=C(OC1CN2CCC1CC2)C12CC3CC(CC(C3)C1)C2 (stereo unspecified) | inactive: 3.17%
Cc1cc(=O)[nH]c(N[N+](=O)[O-])n1 | inactive: -2.34%
Cc1c2c(nc3ccccc13)SC(C(Cl)Cl)C2 (stereo unspecified) | inactive: 8.46%
COc1ccc(N/C(=N/P(=O)(N2CCOCC2)N2CCOCC2)N2CCOCC2)cc1 | inactive: -6.88%
O=[N+]([O-])c1cc(Oc2ccc([N+](=O)[O-])cc2C(F)(F)F)cc([N+](=O)[O-])c1 | inactive: 6.98%
